The source of these data is ChEMBL document CHEMBL1641585, “Discovery of novel and orally active FXR agonists for the potential treatment of dyslipidemia & diabetes” (Bioorg Med Chem Lett, 2011).

SMILES strings stand for the structures.

The assay has as its target T1, Bile acid receptor (Homo sapiens, UniProt Q96RI1).
T1 sequence (Q96RI1 whole entry): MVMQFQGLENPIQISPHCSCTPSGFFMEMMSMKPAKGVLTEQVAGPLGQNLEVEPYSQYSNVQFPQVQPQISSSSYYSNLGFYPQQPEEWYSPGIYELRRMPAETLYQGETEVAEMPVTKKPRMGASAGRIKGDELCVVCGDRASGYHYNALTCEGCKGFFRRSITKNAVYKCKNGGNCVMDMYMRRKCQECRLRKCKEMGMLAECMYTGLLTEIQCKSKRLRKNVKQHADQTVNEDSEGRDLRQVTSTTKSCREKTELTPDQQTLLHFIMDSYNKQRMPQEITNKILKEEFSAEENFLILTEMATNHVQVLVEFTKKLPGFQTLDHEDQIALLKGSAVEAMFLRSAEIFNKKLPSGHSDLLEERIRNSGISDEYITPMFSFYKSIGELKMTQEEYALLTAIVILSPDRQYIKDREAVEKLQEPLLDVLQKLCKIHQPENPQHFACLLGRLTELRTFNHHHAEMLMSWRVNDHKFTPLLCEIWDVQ
Description: Displacement of radioligand from human FXR by scintillation proximity assay.

As usually defined, the IC50 is the concentration needed to halve the response being measured. Lower therefore signals greater potency in that assay. In turn, `O=C(NC1CCCCC1)C(C1CCCCC1)n1c(-c2ccc(Cl)cc2)nc2ccccc21` (stereo unspecified) had an IC50 of 70 nM. In other words, the double-digit nanomolar range.
